The subject of this data set is neutrophils. The data set can be described thus: Neutrophil viability (LDH release). As to conditions: 5 to 100 mM, 1 hour at 37° C. A general note: Release of lactate dehydrogenase indicates damage to the cell membrane.

On to aluminum fluoride, for which the “LDH release above controls” value is on record as “did not show any increased level of LDH release”.

(Values after patent US6689803B2, “Compositions and methods for treating surgical adhesions” (Angiotech Pharmaceuticals, Inc., priority 1996, dated 2004).)
